Measured values published in article PMC7613515, “Reading and erasing of the phosphonium analogue of trimethyllysine by epigenetic proteins” (Communications Chemistry, 2022).

Tests used:
[1] = target: T1, KDM4EJmjC (M1–Q337) (Homo sapiens, UniProt B2RXH2); experiment: LC-MS demethylation assay, KDM4EJmjC; assay type: biochemical; settings: LC-MS time-course, KDM4EJmjC 0.5 µM, peptide 5.0 µM, 22 °C
T1 construct: We chose human KDM4EJmjC (M1–Q337); made in house
T1 sequence (B2RXH2 1-337): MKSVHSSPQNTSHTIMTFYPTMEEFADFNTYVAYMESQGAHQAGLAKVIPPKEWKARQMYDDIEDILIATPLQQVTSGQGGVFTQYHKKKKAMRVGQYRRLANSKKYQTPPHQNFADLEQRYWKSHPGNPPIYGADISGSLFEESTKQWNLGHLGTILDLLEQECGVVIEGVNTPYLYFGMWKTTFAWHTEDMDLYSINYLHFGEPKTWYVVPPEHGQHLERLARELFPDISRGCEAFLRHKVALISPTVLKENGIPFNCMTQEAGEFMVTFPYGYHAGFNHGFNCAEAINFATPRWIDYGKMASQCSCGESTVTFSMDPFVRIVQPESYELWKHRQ
Method: KDM4EJmjC demethylation studies of H3_1-15K9me3 or H3_1-15KP9me3 incubations using LC-MS were conducted as reported, using Agilent RapidFire 365 and Agilent QTOF 6530 machines. In brief, samples were aspirated under vacuum (~50 µL), passed through a loop (10 µL, 400 ms) and wash on a SPE cartridge A (C4) using solvent A (1.5 mL·min^−1, 4500 ms). Peptides were eluted using solvent B (1.25 mL·min^−1, 4500 ms) and directed to the MS for measurements. The cartridge was equilibrated for the next sample (1.25 mL·min^−1, 500 ms) and needle was cleaned with an organic wash solution. Between each sample, an alternating inorganic, organic and inorganic washes were performed to avoid any potential carry over on the SPE cartridge from previous sample. Solvent A: formic acid (0.1%) in water; Solvent B: formic acid (0.1%), acetonitrile (85%) in water; Inorganic wash: water; Organic wash: acetonitrile. Demethylation reactions were conducted in a temperature-controlled room (22 °C) and the MS machine Real-time monitoring mode. A solution [Peptide (6.0 µM), sodium L-ascorbate (600 µM), (NH4)2Fe(II)(SO4)2 (60 µM), disodium 2OG salt (120 µM) in buffer] […] (100 µL) was added and samples from the solution were taken every 2–2.5 min and measured. Note that the time was recorded between the addition and the first aspiration of the enzymatic reaction mixture [Peptide and Enzyme solution mixture]. […]

[2] = system: KDM3AJmjC (T515–S1317); experiment: MALDI-TOF demethylation assay, KDM3AJmjC; assay type: biochemical; settings: 1 hr
Text: To investigate whether H3KP9me3 can be demethylated by other human KDM4 subfamily members, recombinant KDM4AJmjC (M1–L359) and KDM4DJmjC (M1–L358) were produced in E. coli following an adaption of literature procedures[38],[39]. […] No evidence for further demethylation was accrued. […] To test the ability of KDM3 and KDM7 subfamily representatives to demethylate H3KP9me2 or H3KP9me3, KDM3AJmjC (T515–S1317) and KDM7BJmjC (M37–N483) were produced using baculovirus/sf9 and E. coli expression systems, respectively[40],[41]. The synthesis of a histone H3 mimic peptide H3KP9me2 substrate is challenging as the tri-alkylated phosphine group is susceptible to oxidation during synthesis of the protected amino acid and during SPPS requiring oxygen-free conditions. Thus, to investigate if KDM3AJmjC or KDM7BJmjC can catalyse demethylation of H3KP9me2, an appropriate H3KP9me2 substrate was prepared in situ from H3KP9me3 using KDM4EJmjC (2.0 µM), in the presence of KDM3AJmjC (2.0 µM) or KDM7BJmjC (2.0 µM).
A Bruker Daltonics MALDI-TOF/TOF AutoflexSpeed machine and Bruker MTP 384 target plates (polished steel BC, Part: 8280781) were used. The machine was controlled using Flex control (v. 3.4 build 135.10) and Compass for flex series (v. 1.4) software. Measurements were in the positive ion mode with the reflectron mode enabled. […] Samples were then analysed by MALDI-TOF. […]

## ARTKQTAR(Kme3)STGGKA [H3K9me3, natural trimethyllysine control peptide, histone H3 residues 1–15, reference compound]
[1]
  demethylation: both are substrates
[2]; KDM3AJmjC 2.0 µM plus KDM4EJmjC 2.0 µM, peptide 5.0 µM
  demethylation in combination with KDM4EJmjC: manifests conversion to H3K9me1
[2]; KDM3AJmjC 2.0 µM, H3KP9me2 prepared in situ with KDM4EJmjC
  demethylation: do not catalyse demethylation of H3K9me3
